# Biological target: Taspase-1 in transfected HEK-293T cells (Homo sapiens, UniProt Q9H6P5)
# By UniProt entry, the sequences of proteins in these tests, tags left out. Residues count along the entry.
# UniProt Q9H6P5, 1-233 limits assumed: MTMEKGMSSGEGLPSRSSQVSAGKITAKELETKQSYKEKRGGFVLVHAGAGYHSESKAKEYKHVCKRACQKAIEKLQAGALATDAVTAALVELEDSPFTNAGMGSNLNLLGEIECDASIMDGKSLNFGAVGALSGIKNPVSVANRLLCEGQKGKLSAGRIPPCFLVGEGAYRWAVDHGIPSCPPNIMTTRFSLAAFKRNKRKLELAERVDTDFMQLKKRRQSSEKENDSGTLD
# UniProt Q9H6P5, 234-420 limits assumed: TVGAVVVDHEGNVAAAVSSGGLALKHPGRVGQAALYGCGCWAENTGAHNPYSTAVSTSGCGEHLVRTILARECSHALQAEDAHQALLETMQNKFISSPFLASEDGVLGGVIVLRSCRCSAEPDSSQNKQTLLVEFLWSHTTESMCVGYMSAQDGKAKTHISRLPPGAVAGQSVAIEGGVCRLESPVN
# Assay: Dual-fluorescent proteolytic reporter (DFPR) cell assay
# Details: read-out: EC50 in DFPR assay, text b1060
structure (smiles),measurement,value
"C=CS(=O)(=O)N1CCN(Cc2ccc(OC(F)(F)F)cc2)CC1 [SMDC967, 1-(ethenesulfonyl)-4-{[4-(trifluoromethoxy)phenyl]methyl}piperazine]",EC50,26.5 µM
